From patent US8552032B2, “Bicyclic derivatives useful as inhibitors of DPP-1” (Janssen Pharmaceutica NV, priority 2009, dated 2013)

Protein sequences, listed by entry. Tags and fused reporters are not part of them. Residues count along the entry.
UniProt P53634, 25-463 limits assumed: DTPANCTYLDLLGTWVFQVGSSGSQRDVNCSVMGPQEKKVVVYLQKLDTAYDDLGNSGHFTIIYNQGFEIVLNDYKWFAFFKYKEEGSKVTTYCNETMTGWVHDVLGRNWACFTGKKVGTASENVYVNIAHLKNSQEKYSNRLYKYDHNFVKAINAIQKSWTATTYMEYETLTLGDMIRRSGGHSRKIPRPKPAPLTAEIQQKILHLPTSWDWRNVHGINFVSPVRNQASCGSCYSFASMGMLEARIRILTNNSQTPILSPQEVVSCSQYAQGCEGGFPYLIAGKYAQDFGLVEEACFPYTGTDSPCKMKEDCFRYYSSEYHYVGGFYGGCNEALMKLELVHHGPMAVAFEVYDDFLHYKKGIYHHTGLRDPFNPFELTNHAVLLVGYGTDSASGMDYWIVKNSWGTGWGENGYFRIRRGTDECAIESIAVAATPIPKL

Each molecule was assayed against recombinant human DPP-1 (Cathepsin C) (Homo sapiens, UniProt P53634) (assay: DPP-1 Inhibition Assay (in vitro), fluorogenic substrate GR-AMC). Details: read-out: DPP-1 Inhibition IC50; 0.15 nM DPP-1, 10 uM GR-AMC, pH 7.0, room temperature; average value where tested multiple times.
Experimental: Test compounds were assessed for DPP-1 (Cathepsin C) inhibitory activity using a fluorogenic substrate, GR-AMC (Glycine-Arginine-amino-4-methylcoumarin, Bachem, 1-1215). The amount of amino-methylcoumarin released is proportional to the DPP-1 activity, and the reaction is monitored kinetically with a Molecular Devices plate reader using black 96-well plates.
All compounds were tested under room temperature conditions. The assay buffer consisted of 50 mM HEPES, pH 7.0, 100 mM NaCl, 2 mM glutathione (GSH), and 0.002% TWEEN 20. GSH and TWEEN 20 were added to the buffer fresh daily. Just prior to use, an in-house preparation of recombinant human DPP-1 (240 μM stock, MW 49.6 kD) was diluted 600-fold in assay buffer containing fresh 2 mM dithiothreitol (DTT) to activate the enzyme, then diluted into assay buffer (without DTT) 133-fold for a DPP-1 working solution of 3 nM. Test compounds were diluted in DMSO for 20× their final assay concentrations.
Additions to a 96-well black Costar 3915 plates were as follows: 90 μL of 11 μM GR-AMC, 5 μL test compound (followed by mixing), and 5 μL 3 nM DPP1 to start the reaction. Fluorescent reactions were monitored kinetically at 360 nm excitation, 440 nm emission on a Molecular Devices Spectramax XPS reader. The Softmax Pro software of the reader determined the initial velocity of the selected data (the first 3-5 minutes of the reaction), and the best linear regression fit of the initial kinetic data. Final assay conditions were 0.15 nM DPP-1, 10 uM GR-AMC, 50 mM HEPES, pH 7.0, 100 mM NaCl, 2 mM GSH, 0.002% TWEEN 20, 1 uM DTT, 5.0% DMSO. Initial velocity rates were plotted vs. test compound concentration by use of a four-parameter logistics equation (nonlinear regression, sigmoidal dose-response (variable slope), with fixed Hill (1.0) using GraphPad Prism® software for determination of DPP-1 IC50. Within-run assay coefficient of variation (CV) was generally <10%; between-run CV <20%.
Representative compounds of the present invention were tested according to the procedure as described above, with results as listed in Table 12, below.

IC50 [nM]	Compound
> 10000	COc1ccc(NC(=O)c2ccc3[nH]c(CCCNC(=O)[C@@H](N)CC(N)=O)cc3c2)cc1OC
820	CC[C@H](N)C(=O)NCCCc1cc2cc(C(=O)Nc3ccc(Cl)cc3)ccc2[nH]1
12000	COc1ccc(-c2ccc3[nH]c(C4CCN(C(=O)[C@@H](N)Cc5ccc(Br)s5)CC4)cc3c2)cc1OC
710	N[C@@H](Cc1cccs1)C(=O)N1CCC(c2nc3cc(Br)ccc3[nH]2)CC1
560	CC[C@H](N)C(=O)NCCCc1cc2cc(C(=O)Nc3ccc4c(c3)OCCO4)ccc2o1
890	CC[C@H](N)C(=O)NCCCc1cc2cc(C(=O)Nc3ccc4c(c3)OCO4)ccc2o1
530	CC[C@H](N)C(=O)NCCCc1cc2cc(C(=O)Nc3ccc(Cl)c(Cl)c3)ccc2[nH]1
160	COc1ccc(NC(=O)c2ccc3[nH]c(C4CCN(C(=O)[C@@H](N)Cc5cccs5)CC4)cc3c2)cc1OC [Compound 7]
